# Experimental data: PubChem BioAssay AID624267 (The Scripps Research Institute Molecular Screening Center, 2012)
# The chains behind the UniProt entries cited, without tags or fusion partners.
# UniProt O43353, whole entry, looked up: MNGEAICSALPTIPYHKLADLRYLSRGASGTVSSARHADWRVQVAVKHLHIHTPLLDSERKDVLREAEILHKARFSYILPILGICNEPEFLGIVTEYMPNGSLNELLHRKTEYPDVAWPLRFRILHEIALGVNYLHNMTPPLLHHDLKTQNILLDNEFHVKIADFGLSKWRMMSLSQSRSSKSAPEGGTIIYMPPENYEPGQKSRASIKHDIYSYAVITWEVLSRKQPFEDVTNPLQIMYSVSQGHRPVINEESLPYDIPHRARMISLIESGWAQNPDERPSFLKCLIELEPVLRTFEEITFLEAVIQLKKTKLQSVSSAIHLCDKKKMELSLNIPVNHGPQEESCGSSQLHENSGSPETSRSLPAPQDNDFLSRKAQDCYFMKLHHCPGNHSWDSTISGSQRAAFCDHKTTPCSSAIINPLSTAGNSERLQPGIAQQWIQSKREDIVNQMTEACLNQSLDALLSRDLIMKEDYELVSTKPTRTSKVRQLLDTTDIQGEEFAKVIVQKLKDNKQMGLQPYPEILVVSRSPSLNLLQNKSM
# The list shows a part of the results, in another mix than the full data. Calls of active or inactive are those of the source. Cut-off read from the data, not from the text of the source: active = inhibition above about 21%; inactive = the rest.
# Target: Receptor-interacting serine/threonine-protein kinase 2 (Homo sapiens) (UniProt O43353)
# Assay: inhibitors of RIPK2 association with NOD2 – fluorescence, CHO cells, BLA complementation, primary screen (AID 624267);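 note: 0% = vehicle only and 100% = reference blocker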
# Settings: CHO BLA complementation NOD2-RIPK2, CCF4 ratio; at 4.98 µM; active compounds read high
row,Structure (SMILES),inhibition
1,O=P1(N(CCCl)CCCl)OCCC2CCCCN21 (stereo not given),inactive: -13.1%
2,c1ccc(-c2nn[nH]n2)c(-c2nn[nH]n2)c1,inactive: 2.89%
3,Cc1ccc(NP(=O)(Oc2cccc(C)c2)Oc2cccc(C)c2)nc1,inactive: -13.3%
4,CCNC(=S)/N=C(\N)N[N+](=O)[O-],inactive: 6.37%
5,O=C(NC1CCS(=O)(=O)C1)NP(=S)(Oc1ccccc1)Oc1ccccc1 (stereo not given),inactive: 5.94%
6,CC(=O)Nc1ccc([As](=O)(O)O)c(O)c1,inactive: -2.54%
7,CC(=O)Nc1ccc(Oc2c([N+](=O)[O-])cc([N+](=O)[O-])cc2[N+](=O)[O-])cc1,inactive: -1.06%
8,Cc1ccccc1CN(C)C(=O)COC(=O)C(O)(c1ccccc1)c1ccccc1,inactive: -6.28%
9,C[C@H]1OP(=O)(Oc2ccccc2)C[C@@H]2O[C@@H]21 (stereo not given in full),inactive: 0.77%
10,C[C@@H]1C=CCP(=O)(Oc2ccccc2)O1 (stereo not given in full),inactive: 6.56%
11,CC(=O)c1ccc(N2CC2c2ccncc2)cc1 (stereo not given),inactive: -2.89%
12,N#C/C(=C\c1ccc(N(CCBr)CCBr)cc1)C(N)=O,inactive: 8.31%
13,COC(=O)C1(C)COP(=O)(NCc2ccccc2)OC1 (stereo not given),inactive: -11.2%
14,CC(C)(C)C(=O)NC(Sc1ccccc1)C(Cl)(Cl)Cl (stereo not given),inactive: -13.3%
15,CCc1cc(O)c([N+](=O)[O-])c(C)c1[N+](=O)[O-],inactive: 2.21%
16,O=P1(Nc2nc3ccc(Cl)cc3s2)COc2ccccc2O1 (stereo not given),inactive: 3.6%
17,CCOc1ccc(C2=NCC(CBr)S2)cc1 (stereo not given),inactive: -7.27%
18,c1nnnn1CCn1cnnn1,inactive: -3.92%
19,CC(C)C(=O)NC(Sc1ccccc1)C(Cl)(Cl)Cl (stereo not given),inactive: -3.08%
20,O=P(Nc1nccs1)(c1ccccc1)c1ccccc1,inactive: 8.78%
21,O=C(OC1CN2CCC1CC2)c1cccc(Cl)c1 (stereo not given),inactive: -1.62%
22,C(Cc1nn[nH]n1)Cc1nn[nH]n1,inactive: -3.98%
23,Nc1ccc([As](=O)(O)c2ccc([N+](=O)[O-])cc2)cc1,inactive: -3.4%
24,O=[As](O)(c1ccccc1)c1ccc(O)cc1,inactive: -12.6%
25,O=[N+]([O-])c1ccc(O)c(/C=N/Nc2ccc([N+](=O)[O-])cc2[N+](=O)[O-])c1,inactive: -1.74%

row,Structure (SMILES),inhibition
1,CC(=O)NC(SC(=S)N(C)C)C(Cl)(Cl)Cl (stereo not given),inactive: -9.62%
2,O=[N+]([O-])c1ncn(CCn2cnc([N+](=O)[O-])n2)n1,inactive: -10.1%
3,O=P(Nc1nc2ccccc2s1)(c1ccccc1)c1ccccc1,inactive: -1.48%
4,C[C@H]1OP(=O)(Oc2ccccc2)[C@H](O)[C@H](O)[C@H]1N=[N+]=[N-] (stereo not given in full),inactive: -4.64%
5,O=P(Nc1ccccn1)(c1ccc(Br)cc1)c1ccc(Br)cc1,inactive: 3.45%
6,CN(C)C1(CNC(=O)c2ccc(Cl)c(S(N)(=O)=O)c2)CCCCC1,inactive: 8.02%
7,COc1ccc(N)c([N+](=O)[O-])c1[N+](=O)[O-],inactive: 2.68%
8,Nc1ccc(CCCCOc2ccccc2)cc1,inactive: 0.83%
9,O=C(O)CNc1ccc([As](=O)(O)O)cc1,inactive: 2.05%
10,COC(=O)C1(C)COP(=O)(Nc2ccccc2)OC1 (stereo not given),inactive: -4.35%
11,O=[N+]([O-])c1cccc(NC2=NCC(CBr)S2)c1 (stereo not given),inactive: -7.94%
12,O=[N+]([O-])c1ncn(CCn2ncnc2[N+](=O)[O-])n1,inactive: 0.63%
13,CC(C)(C)C(=O)NC(Sc1ccncn1)C(Cl)(Cl)Cl (stereo not given),inactive: -3.78%
14,O=C(Nc1cc([As](=O)(O)O)ccc1O)c1ccccc1,inactive: -7.24%
15,O=P1(N(CCCl)CCCl)OCCCS1 (stereo not given),inactive: -11.4%
16,CC1CCN(C(=O)Oc2c(Cl)cc(Cl)c3cccnc23)CC1,inactive: 2.34%
17,c1cc(-c2nn[nH]n2)ccc1-c1nn[nH]n1,inactive: -1.75%
18,CC(C)c1nc(Nc2ccccc2)n(P(=O)(N(C)C)N(C)C)n1,inactive: -6.86%
19,CC(C)=N/N=C(\N)N[N+](=O)[O-],inactive: 8.06%
20,CN(C)C(=O)OCCc1n(C)cc[n+]1C,inactive: 9.44%
21,CCN(/C(=N/P(=O)(N1CCOCC1)N1CCOCC1)N1CCOCC1)c1ccc(OC)cc1,inactive: -1.19%
22,Nc1ccc([As](=O)(O)c2ccc(N)cc2)cc1,inactive: -10.2%
23,C[N+]1=C2C=CC=CC=C2SC12C([N+](=O)[O-])=CC([N+](=O)[O-])=C[C-]2[N+](=O)[O-] (stereo not given),active: 23.6%
24,Cc1ccc(NP(=O)(Oc2ccccc2)Oc2ccccc2)nc1,inactive: 0.95%
25,CCc1nc2c(n1)c1c(non1O)c1c2no[n+]1[O-],inactive: 3.39%

row,Structure (SMILES),inhibition
1,O=[N+]([O-])c1cc([N+](=O)[O-])c(CCNc2ccccc2)c([N+](=O)[O-])c1,inactive: -1.28%
2,O=[N+]([O-])c1cccc2n[nH]nc12,inactive: -9.6%
3,CC(=O)N1C2C3N(C(C)=O)C1C1N(C(C)=O)C(C(N1C(C)=O)N3C(C)=O)N2C(C)=O,inactive: -0.39%
4,COc1ccc(C2=NCC(CBr)S2)cc1 (stereo not given),inactive: 1.68%
5,O=[N+]([O-])C1C(O)C(O)C([N+](=O)[O-])C(O)C1O (stereo not given),inactive: 0.39%
6,Oc1ccccc1CNc1ccccn1,inactive: -0.04%
7,O=C(NC(Sc1ccncn1)C(Cl)(Cl)Cl)c1ccccc1 (stereo not given),inactive: 4.96%
8,Nc1cc(N)c2nonc2c1[N+](=O)[O-],inactive: 2.41%
9,CC(C)CC(=O)NC(Sc1ccc(Cl)cc1)C(Cl)(Cl)Cl (stereo not given),inactive: -5.64%
10,CN1CCCC(OC(=O)C(c2ccccc2)c2ccccc2)C1 (stereo not given),inactive: -0.98%
11,Clc1ccc(Cl)c(NC2=NCC(CBr)S2)c1 (stereo not given),inactive: -0.53%
12,COc1ccccc1OP(=O)(Nc1ccc(C)cn1)Oc1ccccc1OC,inactive: 0.63%
13,Cc1ccc(OP(=O)(Nc2nccs2)Oc2ccc(C)cc2)cc1,inactive: -6.66%
14,Cc1ccc(N/C(=N/P(=O)(N2CCOCC2)N2CCOCC2)N2CCOCC2)cc1,inactive: -0.81%
15,NC(=O)c1cc([N+](=O)[O-])cc([N+](=O)[O-])c1N,inactive: -8.03%
16,Nc1cccc2ccc([As](=O)(O)O)cc12,inactive: 2.86%
17,CCN(N=Nc1nonc1N)c1nonc1N,inactive: -3.92%
18,Cc1cc(SC(NC(=O)c2ccc(F)cc2)C(Cl)(Cl)Cl)ncn1 (stereo not given),inactive: -1.01%
19,CCOP(=O)(Nc1ccccc1)OCC,inactive: -15.2%
20,Cc1ccc(NP(=O)(Oc2ccccc2F)Oc2ccccc2F)nc1,inactive: 1.63%
21,O=P(Nc1nc2ccc(Cl)cc2s1)(c1ccccc1)c1ccccc1,inactive: 2.13%
22,CN(C)P(=O)(N(C)C)n1c(Nc2ccccc2)nnc1-c1ccccc1,inactive: -1.43%
23,CC(=O)Nc1ccc([As](=O)(O)O)cc1,inactive: 9.03%
24,O=C(O)c1ccccc1[As](=O)(O)O,inactive: -5.24%
25,CCCC1OP(N)(=O)OCC1CC (stereo not given),inactive: -3.25%
